In patent US6713266B1 (Isodiagnostika Inc., priority 1998, dated 2004):

Assays:
Assay type in all cases: binding
[1] = tested on: Mouse monoclonal antibody AM1-2E10; assay: Antigen panel (direct) ELISA, MoAb tissue culture supernatant; conditions: for Percent reactivity: AM1-2E10, OD to test antigen / OD to CSA-DVS-HSA × 100; for OD: AM1-2E10 TCS, coated test antigen
Procedure: (§1) 1. Use Falcon Pro-bind immunoplate.
(§2) 2. Dilute coating antigen (Ag) to 1.0 μg/mL in carbonate-bicarbonate buffer. Use glass tubes.
(§3) 3. Add 100 μL to each well of plate. Store overnight at 4° C.
(§4) 4. Shake out wells and wash 3× with 200 μL PBS/0.05% TWEEN™ (polyoxyethylene-sorbitol) (v/v) per well.
(§5) 5. Add blocking buffer, 200 μL per well (PBS/2% BSA (w/v)). Incubate for 60 min at 37° C.
(§6) 7. Add 100 μL per well of test antibody appropriately diluted in PBS/0.1% Tween (v/v). Incubate 60 min at 37° C.
(§7) 9. Dilute alkaline phosphatase conjugated anti-mouse IgG (Pierce cat #31322) in PBS/0.1% TWEEN™ (polyoxyethylene-sorbitol) (v/v) to 1:2000 concentration. Add 100 μL per well and incubate at 37° C. for 60 min.
(§8) 10. Wash 3× as in step 4.
(§9) 11. Prepare enzyme substrate using Sigma #104 alkaline phosphatase substrate tablets (1 mg/mL in 10% diethanolamine (v/v) substrate buffer). Add 100 μL per well and incubate in the dark at room temperature. Absorbance can be read at 405 nm at approximately 15-min intervals.
(§10) Spleen cells from mice immunized with the AM1-DVS conjugates have been used to prepare monoclonal antibody secreting hybridoma cells. IgM and IgG anti-CSA MoAbs have been isolated by direct ELISA to CSA-DVS-HSA conjugates. Table 17 illustrates the reactivity of TCS from two of these monoclonal antibody clones (AM1-2E10 and Am1-7F5).

[2] = tested on: Mouse monoclonal antibody AM1-7F5; assay: as above; conditions: for Percent reactivity: AM1-7F5, OD to test antigen / OD to CSA-DVS-HSA × 100; for OD: AM1-7F5 TCS, coated test antigen
Procedure: as §1, §2, §3, §4, §5, §6, §7, §8, §9, §10

[3] = tested on: Mouse polyclonal sera (AM19-9-DVS-KLH immunogens); assay: Antigen panel (direct) ELISA, mouse polyclonal sera; conditions: for Percent reactivity: OD to test antigen / OD to AM19-9-DVS-HSA × 100; for OD: coated test antigen
Procedure: as §1, §2, §3, §4, §5, §6, §7, §8, §9
Sera from mice immunized with the AM19-9-DVS immunogen showing high reactivity to the AM19-9-DVS hapten were further characterized by antigen panel ELISA (Table 9).

[4] = tested on: Mouse monoclonal antibody CSA-2G9; assay: Antigen panel (direct) ELISA, MoAb tissue culture supernatant; conditions: for Percent reactivity: CSA-2G9, OD to test antigen / OD to CSA-DVS-HSA × 100; for OD: CSA-2G9 TCS, coated test antigen
Procedure: as §1, §2, §3, §4, §5, §6, §7, §8, §9
(§11) Spleen cells from mice immunized with the CSA-DVS conjugate have been used to prepare monoclonal antibody secreting hybridoma clones. IgM and IgG anti-CSA secreting clones have been isolated. Table 15 illustrates the reactivity of tissue culture supernatants (TCS) from two of these anti-CSA MoAbs (CSA-1H6 and CSA-2G9).

[5] = tested on: Mouse monoclonal antibody CSA-1H6; assay: as above; conditions: for Percent reactivity: CSA-1H6, OD to test antigen / OD to CSA-DVS-HSA × 100; for OD: CSA-1H6 TCS, coated test antigen
Procedure: as §1, §2, §3, §4, §5, §6, §7, §8, §9, §11

[6] = tested on: Mouse polyclonal sera (AM9-1-DVS-KLH immunogen); assay: Antigen panel (direct) ELISA, mouse polyclonal sera; conditions: for Percent reactivity: OD to test antigen / OD to AM9-1-DVS-HSA × 100; for OD: coated test antigen
Procedure: as §1, §2, §3, §4, §5, §6, §7, §8, §9
The reduction in antibody binding to the AM19-9 hapten is presumed to be due to masking of the epitope recognition site, (i.e., blocking the modified a.a. #9 residue with the DVS linker arm would thereby block Ab/Ag interaction). […] Screening for specific anti-AM9 MoAbs can also be achieved.

[7] = tested on: Mouse polyclonal sera (AM19-1-DVS (1) - KLH immunogen); assay: as above; conditions: for Percent reactivity: OD to test antigen/OD to AM19-1-DVS (1) × 100; for OD: coated test antigen
Procedure: as §1, §2, §3, §4, §5, §6, §7, §8, §9
(§12) These serum samples were assayed by direct ELISA for antibody titre to specific haptens. Sera showing high antibody reactivity to AM19 were further characterized by antigen panel ELISA (Table 6).

[8] = tested on: Mouse polyclonal sera (AM19-1-DVS (2) - KLH immunogen); assay: as above; conditions: for Percent reactivity: OD to test antigen/OD to AM19-1-DVS (2) × 100; for OD: coated test antigen
Procedure: as §1, §2, §3, §4, §5, §6, §7, §8, §9, §12

[9] = tested on: Mouse monoclonal antibody AM19-1-7E12-1; assay: Antigen panel (direct) ELISA, MoAb tissue culture supernatant; conditions: for Percent reactivity: AM19-1-7E12-1, OD to test antigen / OD to AM19-1-DVS (1)-HSA × 100; for OD: AM19-1-7E12-1 TCS, coated test antigen
Procedure: as §1, §2, §3, §4, §5, §6, §7, §8, §9
(§13) Spleen cells from mice immunized with the AM19-1-DVS (1) conjugate have been used to prepare MoAb secreting hybridoma cells. Anti-AM19-1-DVS (1) ELISA reactive IgM and IgG MoAb isotypes have been isolated. Table 19 illustrates the reactivity of TCS from two of these anti-AM19-1-DVS MoAbs (AM19-1-7E12-1 and AM19-1-7E12-2).

[10] = tested on: Mouse monoclonal antibody AM19-1-7E12-2; assay: as above; conditions: for Percent reactivity: AM19-1-7E12-2, OD to test antigen / OD to AM19-1-DVS (1)-HSA × 100; for OD: AM19-1-7E12-2 TCS, coated test antigen
Procedure: as §1, §2, §3, §4, §5, §6, §7, §8, §9, §13

[11] = tested on: Mouse polyclonal sera (AM1-DVS-KLH immunogens); assay: Antigen panel (direct) ELISA, mouse polyclonal sera; conditions: for Percent reactivity: OD to test antigen / OD to CSA-DVS-HSA × 100; for OD: coated test antigen
Procedure: as §1, §2, §3, §4, §5, §6, §7, §8, §9
Individual mouse sera collected 10 days post-secondary and tertiary immunizations were assayed for antibody titre by direct ELISA. Mice having high anti-CSA titres were assayed for specificity by antigen panel reactivity.

[12] = tested on: Mouse polyclonal sera (CSA-DVS-KLH immunogen); assay: as above; conditions: for Percent reactivity: OD to test antigen / OD to CSA-DVS-HSA × 100; for OD: coated test antigen
Procedure: as §1, §2, §3, §4, §5, §6, §7, §8, §9
These sera had low reactivity to the AM19-9-DVS-HSA conjugate.

[13] = tested on: Mouse polyclonal sera (AM9-9-DVS-KLH immunogen); assay: as above; conditions: for Percent reactivity: OD to test antigen/ OD to AM19-9-DVS-HSA × 100; for OD: coated test antigen
Procedure: as §1, §2, §3, §4, §5, §6, §7, §8, §9
Sera from mice immunized with the AM9-9-DVS immunogen which reacted strongly to the AM19-9-DVS hapten were further characterized by antigen panel ELISA (Table 13). Sera from these mice recognize epitopes on the AM19-9-DVS-HSA molecule. […] The reduction in antibody binding to panel antigens coupled through the amino acid #1 residue is presumed to be due to masking of the Ab epitope recognition site. As the AM9-9-DVS immunogens would present the amino acid #1 face of the molecule for immune recognition, blocking the amino acid #1 residue with the DVS linker arm would thereby block Ab/Ag interaction.

AM9-1-DVS-HSA: AM9-DVS hapten (DVS through secondary hydroxyl of amino acid 1) conjugated to HSA
Percent reactivity [1]: >100% | OD [1]: 1.750 | Percent reactivity [2]: >100% | OD [2]: 2.465 | Percent reactivity ([3]; Mouse 5): 7.2% | OD ([3]; Mouse 5): 0.232 | Percent reactivity ([3]; Mouse 6): 14.0% | OD ([3]; Mouse 6): 0.457 | Percent reactivity [4]: >100% | OD [4]: 2.978 | Percent reactivity [5]: >100% | OD [5]: 1.904 | Percent reactivity ([6]; Mouse 1): 100% | OD ([6]; Mouse 1): 1.941 | Percent reactivity ([6]; Mouse 2): 100% | OD ([6]; Mouse 2): 2.443 | Percent reactivity ([7]; Mouse 1): 81.8% | OD ([7]; Mouse 1): 2.683 | Percent reactivity ([7]; Mouse 2): 96.4% | OD ([7]; Mouse 2): 2.920 | Percent reactivity ([8]; Mouse 3): 97.2% | OD ([8]; Mouse 3): 1.372 | Percent reactivity ([8]; Mouse 4): 82.9% | OD ([8]; Mouse 4): 2.134 | Percent reactivity [9]: >100% | OD [9]: 3.268 | Percent reactivity [10]: 95.5% | OD [10]: 3.167 | Percent reactivity ([11]; Mouse 1): >100% | OD ([11]; Mouse 1): 1.037 | Percent reactivity ([11]; Mouse 2): >100% | OD ([11]; Mouse 2): 0.966 | Percent reactivity ([12]; Mouse 1): >100% | OD ([12]; Mouse 1): 1.304 | Percent reactivity ([12]; Mouse 2): >100% | OD ([12]; Mouse 2): 1.218 | Percent reactivity ([13]; Mouse 1): 8.2% | OD ([13]; Mouse 1): 0.252 | Percent reactivity ([13]; Mouse 2): 0% | OD ([13]; Mouse 2): 0 | Percent reactivity ([13]; Mouse 3): 0% | OD ([13]; Mouse 3): 0

Rapa-suc-HSA: Rapamycin conjugate with HSA used as panel antigen
Percent reactivity [1]: 0% | OD [1]: 0.015 | Percent reactivity [2]: 0% | OD [2]: 0.008 | Percent reactivity ([3]; Mouse 5): 0% | OD ([3]; Mouse 5): 0.020 | Percent reactivity ([3]; Mouse 6): 0% | OD ([3]; Mouse 6): 0.033 | Percent reactivity [4]: 0% | OD [4]: 0.006 | Percent reactivity [5]: 0% | OD [5]: 0 | Percent reactivity ([6]; Mouse 1): 0% | OD ([6]; Mouse 1): 0 | Percent reactivity ([6]; Mouse 2): 0% | OD ([6]; Mouse 2): 0 | Percent reactivity ([7]; Mouse 1): 0% | OD ([7]; Mouse 1): 0 | Percent reactivity ([7]; Mouse 2): 1.2% | OD ([7]; Mouse 2): 0.036 | Percent reactivity ([8]; Mouse 3): 0% | OD ([8]; Mouse 3): 0 | Percent reactivity ([8]; Mouse 4): 0% | OD ([8]; Mouse 4): 0 | Percent reactivity [9]: 0% | OD [9]: 0 | Percent reactivity [10]: 0% | OD [10]: 0 | Percent reactivity ([11]; Mouse 1): 0% | OD ([11]; Mouse 1): 0 | Percent reactivity ([11]; Mouse 2): 0% | OD ([11]; Mouse 2): 0 | Percent reactivity ([12]; Mouse 1): 0% | OD ([12]; Mouse 1): 0 | Percent reactivity ([12]; Mouse 2): 0% | OD ([12]; Mouse 2): 0 | Percent reactivity ([13]; Mouse 1): 1.6% | OD ([13]; Mouse 1): 0.048 | Percent reactivity ([13]; Mouse 3): 0% | OD ([13]; Mouse 3): 0

AM19-9-DVS-HSA: AM19-DVS hapten (DVS through hydroxyl of amino acid 9) conjugated to HSA
Percent reactivity [1]: 17.5% | OD [1]: 0.270 | Percent reactivity [2]: 40.1% | OD [2]: 0.790 | Percent reactivity ([3]; Mouse 5): 100% | OD ([3]; Mouse 5): 3.231 | Percent reactivity ([3]; Mouse 6): 100% | OD ([3]; Mouse 6): 3.267 | Percent reactivity [4]: 11.7% | OD [4]: 0.323 | Percent reactivity [5]: 33.7% | OD [5]: 0.511 | Percent reactivity ([6]; Mouse 1): 57.7% | OD ([6]; Mouse 1): 1.119 | Percent reactivity ([6]; Mouse 2): 67.3% | OD ([6]; Mouse 2): 1.644 | Percent reactivity ([7]; Mouse 1): 96.6% | OD ([7]; Mouse 1): 3.17 | Percent reactivity ([7]; Mouse 2): 79.6% | OD ([7]; Mouse 2): 2.409 | Percent reactivity ([8]; Mouse 3): 45.8% | OD ([8]; Mouse 3): 0.646 | Percent reactivity ([8]; Mouse 4): 42.4% | OD ([8]; Mouse 4): 1.091 | Percent reactivity [9]: 89.4% | OD [9]: 2.883 | Percent reactivity [10]: 64.3% | OD [10]: 2.132 | Percent reactivity ([11]; Mouse 1): 61.9% | OD ([11]; Mouse 1): 0.483 | Percent reactivity ([11]; Mouse 2): 93.7% | OD ([11]; Mouse 2): 0.583 | Percent reactivity ([12]; Mouse 1): 29.3% | OD ([12]; Mouse 1): 0.290 | Percent reactivity ([12]; Mouse 2): 46.4% | OD ([12]; Mouse 2): 0.453 | Percent reactivity ([13]; Mouse 1): 100% | OD ([13]; Mouse 1): 3.077 | Percent reactivity ([13]; Mouse 2): 100% | OD ([13]; Mouse 2): 0.618 | Percent reactivity ([13]; Mouse 3): 100% | OD ([13]; Mouse 3): 1.802
